Experimental findings from paper PMC3662788, “The Catalytic Roles of P185 and T188 and Substrate-Binding Loop Flexibility in 3α-Hydroxysteroid Dehydrogenase/Carbonyl Reductase from Comamonas testosteroni” (PLoS ONE, 2013) are described below.

Substrate in the data set: NC(=O)c1ccc[n+]([C@@H]2O[C@H](COP(=O)([O-])OP(=O)(O)OC[C@H]3O[C@@H](n4cnc5c(N)ncnc54)[C@H](O)[C@@H]3O)[C@@H](O)[C@H]2O)c1
The data set can be described thus: purified protein, by the assay type. The conditions noted are these: other: P185G, 0.1 M Caps pH 10.5, 25°C.

B1: P185G mutant 3α-HSD/CR (Comamonas testosteroni; P185G) (protein)
chain: MSIIVISGCATGIGAATRKVLEAAGHQIVGIDIRDAEVIADLSTAEGRKQAIADVLAKCSKGMDGLVLCAGLGPQTKVLGNVVSVNYFGATELMDAFLPALKKGHQPAAVVISSVASAHLAFDKNPLALALEAGEEAKARAIVEHAGEQGGNLAYAGSKNALTVAVRKRAAAWGEAGVRLNTIAGGATETPLLQAGLQDPRYGESIAKFVPPMGRRAEPSEMASVIAFLMSPAASYVHGAQIVIDGGIDAVMRPTQF
On to B1, for which the Km worked out at 211 ± 66 µM.
